The target of the experiment is split ligand binding domain of estrogen receptor beta (ERβ) (Homo sapiens, UniProt Q92731). As to conditions: HEK293T cells, increasing ligand concentration, compared to cells not stimulated; FIG. 2C.

Sequences of proteins named here, by UniProt entry; tags and fusion partners are left off. A change or cut given only in a name is not applied to a line headed by its entry.
UniProt Q92731: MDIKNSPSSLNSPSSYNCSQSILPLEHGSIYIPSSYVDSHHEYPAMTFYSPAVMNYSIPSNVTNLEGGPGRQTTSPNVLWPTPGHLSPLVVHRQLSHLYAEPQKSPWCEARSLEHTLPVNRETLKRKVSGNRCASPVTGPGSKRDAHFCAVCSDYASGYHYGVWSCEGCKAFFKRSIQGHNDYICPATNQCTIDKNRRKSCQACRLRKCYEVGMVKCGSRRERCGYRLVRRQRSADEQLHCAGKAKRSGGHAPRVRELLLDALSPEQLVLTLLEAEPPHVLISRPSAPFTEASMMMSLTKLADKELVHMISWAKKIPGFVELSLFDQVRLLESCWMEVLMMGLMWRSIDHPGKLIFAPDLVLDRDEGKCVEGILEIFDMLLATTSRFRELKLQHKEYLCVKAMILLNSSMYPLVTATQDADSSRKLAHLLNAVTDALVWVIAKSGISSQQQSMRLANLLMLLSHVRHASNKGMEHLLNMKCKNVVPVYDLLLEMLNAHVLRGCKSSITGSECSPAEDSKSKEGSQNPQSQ

For the molecule `C[C@]12CC[C@@H]3c4ccc(O)cc4CC[C@H]3[C@@H]1CC[C@@H]2O` [17β-estradiol], the “firefly luciferase activity (dimerization of split ERβ CISPA sensor)” value is “an increase in firefly luciferase activity is observed”.

(Values after patent US20250321223A1, “ENGINEERING CHEMICALLY INDUCIBLE SPLIT PROTEIN ACTUATORS (CISPA)” (KEMIJSKI INSTITUT, priority 2021, published 2025).)
